# Source: PubChem BioAssay
# VDR inh – blocks the human vitamin D receptor. Potency, µM, for the others: max response, negative = inhibition, most hits filed as inhibitors. AID 504847. hit rate 0.93% among 400,000. VDR-SRC2-3 peptide fluorescence polarization, 2 h; further: potency means the concentration at half of the fitted maximal effect; on the % scale 0 is the no-effect control and ±100 the full control effect
#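 Measured by FP: displacement of SRC2-3 coactivator peptide from VDR by library compounds, following a two-hour ambient incubation.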
# KAT2A inh – GCN5L2 (KAT2A) acetyltransferase inhibition. Q92830. GCN5L2 HAT assay, ThioGlo1 CoA-SH fluorescence. Potency, µM (series often up to 58.9 µM), inactives show at the highest dose activity change, negative = inhibition, most hits filed as inhibitors. hit rate 0.21% among 390,000. AID 504327; further: potency means the concentration at half of the fitted maximal effect; on the % scale 0 is the no-effect control and ±100 the full control effect
#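 Preincubate 20nM GCN5L2 with compound 15 min, RT → add 50uM ThioGlo1 + 75uM H3(1-25) + 70uM acetyl-CoA → read fluorescence 0 and 20 min. Primary qHTS; fluorescent artifacts likely.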
# PLK1 PBD inh – inhibitors of human PLK1 polo-box domain binding. Plk1 PBD binding of FITC phosphopeptide, fluorescence polarization. AID 720504. P53350. Potency, µM, without a hit: max response, negative = inhibition, actives largely listed as inhibitors. hit rate 2.8% among 360,000; further: potency means the concentration at half of the fitted maximal effect; series mostly up to about 57 µM; on the % scale 0 is the no-effect control and ±100 the full control effect; nearly all actives have a fitted effect of over 65% in size
# Rango release inh – prevents RanGTP from dissociating the Rango-importin beta complex; Biochemical FRET Rango-importin beta, RanGTP-induced dissociation; Potency, µM (series often up to 46.1 µM), for inactives: at the top dose activity change, negative = inhibition; hit rate 0.071% among 340,000; AID 540253; calls by dose curve; further: potency means the concentration at half of the fitted maximal effect; % of control where 0% means no effect; nearly all actives have a fitted effect of over 45% in size
#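 Quantitative HTS using a FRET biosensor: 0.1 uM Rango, 0.25 uM importin beta, 0.6 uM Ran, 2 mM GTP, 0.2 uM RCC1 final, PBS with DTT, Tween-20 and BSA. Post-read taken 45 min after Ran addition.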
# Rango complex inh – inhibitors of Rango-importin beta complex formation; AID 540263; Q14974; Rango CFP/YFP FRET sensor + importin beta, 45 min; Potency, µM (titrated, usually from 92.2 µM), without a hit: top-dose inhibition of complex formation; hit rate 0.031% among 340,000; calls by dose curve;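 further: potency means the concentration at half of the fitted maximal effect; 0% = DMSO wells and 100% = buffer wells lacking importin beta; nearly all actives have a fitted effect of over 15% in size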
#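 Inhibition scored from the CFP 486 nm/YFP 530 nm FRET ratio 45 min after adding 0.125 microM importin beta to 50 nM Rango biosensor preincubated 5 min with compound (room temperature, PBS with DTT, Tween-20, BSA). No-importin wells as positive control.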
# PI5P4K alpha inh – PI5P4K alpha (human) kinase inhibition; hit rate 1.2% among 330,000; P48426; max response, %; PI5P4Kalpha enzyme, ADP-Glo luminescence, 60 min; hits give low values; AID 652105; active means max response of -50% or lower; inconclusive means between -30% and -50%; inactive means -30% or higher; further: value at the top dose of about 77 µM; on the % scale 0 is the no-effect control and ±100 the full control effect
#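 Enzyme plus substrate dispensed, test compounds pinned in, then ATP (5 microM final) added. After 60 min at RT, ADP-Glo reagent 1 for 45 min and reagent 2 for 30 min preceded luminescence imaging.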
# The depositor's hits bear a star; ? = inconclusive; / = not tested or not shown; ! = not active in a repeat; [ ] = dose if it differs, or a comment. The list is not random: actives were taken first. Their share in the collection is about 3.6%. Unless noted, the call rests on the fitted dose curve; in most records, active means well fitted curve in the direction sought with a large enough effect; inconclusive means small, poorly fitted or top-dose-only effect, or another doubt; inactive means no such curve, though single readings can be large; an effect the other way counts as inactive or inconclusive.
Structure	VDR inh	KAT2A inh	PLK1 PBD inh	Rango release inh	Rango complex inh	PI5P4K alpha inh
O=C(c1c(O)cc(O)cc1O)C1c2c(cc(O)c3c2O[C@H](c2ccc(O)cc2)[C@@H](O)C3)OC1c1ccc(O)cc1 (stereo partly drawn)	?	-3%	-7%	-21%	1%	?
O=C(OC1Cc2c(O)cc(O)cc2OC1c1cc(O)c(O)c(O)c1-c1c(C2Oc3cc(O)cc(O)c3CC2O)cc(O)c(O)c1O)c1cc(O)c(O)c(O)c1 (stereo not drawn)	-14%	16µM*	/	/	/	/
COc1cccc(NC(=O)Cn2c(=O)n(CCC(=O)NCc3ccccc3OC)c(=O)c3ccccc32)c1	-9%	-5%	/	/	/	/
CCCOc1ccccc1C(=O)N(Cc1ccc(C)o1)C1CCS(=O)(=O)C1 (stereo not drawn)	-17%	2%	0%	47%	2%	0
CCCOc1ccccc1C(=O)N(Cc1ccco1)C1CCS(=O)(=O)C1 (stereo not drawn)	-11%	-3%	30µM*	-8%	-2%	-22
CCn1c(SC(=O)NC2CCCCC2)nnc1-c1cccs1	9%	-8%	2.7µM*	-4%	-5%	-7
Cn1c(SCC(=O)NC2CCCC2)nnc1-c1cccs1	0%	1%	2%	-2%	-2%	6
CC(C)(C)c1ccc(NC(=O)Nc2ccc(F)cc2)cc1	0%	0%	27µM*	27%	-2%	-18
COc1cc(CNC(=O)CCCC(=O)c2ccccc2)cc(OC)c1OC	-29%	-1%	24µM*	12%	2%	1
O=C(CCCC(=O)c1ccccc1)NCc1ccccc1	-21%	0%	?	5%	-1%	-1
CCOC(=O)c1scc(-c2ccc(C)cc2)c1S(=O)(=O)Nc1cc(Cl)ccc1OC	0%	-3%	/	/	/	/
O=C(O)c1ccccc1C(=O)Nc1ccccc1	17%	-19%	0%	7%	-1%	/
O=C(Nc1ccccc1)C1=C(c2ccccc2)S(=O)(=O)CCS1(=O)=O	22µM*	-8%	5.3µM*	-8%	7%	0
O=c1c2c3c(sc2n(Cc2cc(=O)n4ccccc4n2)c(=O)n1-c1ccccc1)CCC3	-20%	-3%	/	/	/	/
O=C(c1ccccc1)c1coc2ccc(O)c(CN3CCOCC3)c12	-11%	-5%	21µM*	-1%	1%	-17
CN(C)Cc1c(O)ccc2occ(C(=O)c3ccccc3)c12	9%	/	-1%	-6%	1%	/
CCOC(=O)c1c(-c2ccccc2)oc2ccc(O)c(CN3CCOCC3)c12	-21%	-12%	12µM*	-9%	-3%	-26
CCOC(=O)c1c(C)oc2ccc(O)c(CN3CCCCC3)c12	1%	-2%	2%	-3%	0%	/
CC1CCN(C(=O)CSc2c(C(C)C)cnc3c2c(=O)n(C)c(=O)n3C)CC1	1%	-8%	/	/	/	/
CCOC(=O)c1c(C)c(C(=O)NCc2ccc(Cl)cc2)c(C)n1C	8%	-5%	/	/	/	/
O=C(COC(=O)c1cccc([N+](=O)[O-])c1)NCC1CCCO1 (stereo not drawn)	-18%	-2%	27µM*	11%	-4%	-11
CC1=C(C(=O)Nc2ccc(Cl)cc2)C(C(C)C)n2nc(SCc3cccc(C)c3)nc2N1 (stereo not drawn)	?	-9%	/	/	/	/
CCCC[C@@]1(C2CCCC2)Cc2cc(OCC(=O)O)c(Cl)c(Cl)c2C1=O	50µM*!	-21%	-27%	19%	1%	8
CCN(Cc1ccccc1)c1ccc(/C=N/NS(=O)(=O)c2cccc([N+](=O)[O-])c2)cc1	-3%	-13%	?	-8%	1%	0
CCN(CC)c1ccc(C(=C2C=CC(=[N+](CC)Cc3cccc(S(=O)(=O)[O-])c3)C=C2)c2ccc(N(CC)Cc3cccc(S(=O)(=O)O)c3)cc2)cc1	13µM*	10µM*	/	/	/	/
O=C1CSC(c2ccc(Cl)cc2)N1C1CCCCC1 (stereo not drawn)	24%	/	-9%	-6%	0%	1
N#CC1=C2SCN(C3CCCCC3)CN2C(=O)CC1c1ccc(F)cc1 (stereo not drawn)	18µM*	?	/	/	/	/
N#CC1=C2SCN(C3CCCCC3)CN2C(=O)CC1c1c(F)cccc1Cl (stereo not drawn)	20µM*	-20%	/	/	/	/
N#CC1=C2SCN(C3CCCCC3)CN2C(=O)CC1c1ccc(Cl)cc1 (stereo not drawn)	22µM*	?	/	/	/	/
COc1ccc(CCNC(=O)C(=O)NCC(c2ccc3c(c2)OCO3)N2CCOCC2)cc1 (stereo not drawn)	20%	-1%	/	/	/	/
CCOC(=O)/C(C)=C1\NC(C)(C)Cc2ccccc21	-21%	?	73%	8%	9%	-66*
Cc1ccc(/C=C/C(=O)N2CCC(c3nc4ccccc4o3)CC2)cc1	2%	-2%	/	/	/	/
CCN=c1sc(C(=O)OC)cc(=O)n1CC	-2%	-1%	-11%	-4%	2%	1
C=CCN=c1sc(C(=O)OC)cc(=O)n1CC=C	?	1%	30µM*	0%	0%	/
Cc1cccc(C(=O)n2c(=S)nc3ccccn32)c1	79µM*	-7%[0.501 µM]	24µM*	10%	1%	?
Cc1ccccc1N(C(=O)c1csnn1)C(C(=O)NC(C)(C)C)c1cccs1 (stereo not drawn)	?	0%	8.4µM*	-11%	0%	?
CCOc1ccc(N2C(=O)CC(N3CCN(c4ccccc4F)CC3)C2=O)cc1 (stereo not drawn)	-13%	-7%	27µM*	21%	-4%	-7
CCOc1ccc(N2C(=O)CC(N3CCN(c4ccccc4OC)CC3)C2=O)cc1 (stereo not drawn)	-31%	-28%	-7%	-9%	-5%	-3
Cc1ccc(-c2cc(C(=O)Oc3ccc(C#N)cc3)no2)cc1	-5%	-3%	/	/	/	/
COc1ccc(/C=C\C(=O)CC(O)(c2ccccc2)C(F)(F)F)cc1 (stereo not drawn)	50µM*	-2%[0.501 µM]	-9%	6%	-4%	/
CCCCN(C(=O)c1cc(-c2ccco2)nc2ccccc12)c1c(N)n(CCC)c(=O)[nH]c1=O	-9%	-19%	-21%	-14%	5%	-73*
CCCCN(C(=O)c1cc(Cl)nc2ccccc12)c1c(N)n(CCC)c(=O)[nH]c1=O	/	/	-4%	/	/	8
Cc1ccc(CC#N)c(-c2c(CC#N)ccc(C)c2C)c1C	/	/	-9%	/	/	0
Cc1ccc2c(c1C)-c1c(ccc(C)c1C)C(=O)C2=O	?	/	19µM*	17%	29µM*	7
CCCCCCCCCCCCCCCC(=O)C1=C(O)C(CO)OC1=O (stereo not drawn)	14µM*	11µM*	/	/	/	/

# Some of these compounds in order of formula weight, low to high:
Structure	VDR inh	KAT2A inh	PLK1 PBD inh	Rango release inh	Rango complex inh	PI5P4K alpha inh
O=C(COC(=O)c1cccc([N+](=O)[O-])c1)NCC1CCCO1 (stereo not drawn)	-18%	-2%	27µM*	11%	-4%	-11
Cn1c(SCC(=O)NC2CCCC2)nnc1-c1cccs1	0%	1%	2%	-2%	-2%	6
CCCCCCCCCCCCCCCC(=O)C1=C(O)C(CO)OC1=O (stereo not drawn)	14µM*	11µM*	/	/	/	/
CCOc1ccc(N2C(=O)CC(N3CCN(c4ccccc4F)CC3)C2=O)cc1 (stereo not drawn)	-13%	-7%	27µM*	21%	-4%	-7
O=C(OC1Cc2c(O)cc(O)cc2OC1c1cc(O)c(O)c(O)c1-c1c(C2Oc3cc(O)cc(O)c3CC2O)cc(O)c(O)c1O)c1cc(O)c(O)c(O)c1 (stereo not drawn)	-14%	16µM*	/	/	/	/
